## scFv variants of Ab-91 (heavy chain) against a SARS-CoV-2 spike peptide

Source: Engelhart et al. 2022 (doi:10.1038/s41597-022-01779-4), MIT Lincoln Laboratory and A-Alpha Bio; data file from the FLAb repository.

The target is the same throughout: PDVDLGDISGINAS, from the HR2 region of SARS-CoV-2 spike.

The variants keep the light chain, the linker and the frameworks of Ab-91 (scFv order VL, the linker GGGGSGGGGSGGGGS, VH).
VL: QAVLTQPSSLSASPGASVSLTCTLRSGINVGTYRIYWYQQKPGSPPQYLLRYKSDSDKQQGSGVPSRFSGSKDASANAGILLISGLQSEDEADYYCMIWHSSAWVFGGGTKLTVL
VH: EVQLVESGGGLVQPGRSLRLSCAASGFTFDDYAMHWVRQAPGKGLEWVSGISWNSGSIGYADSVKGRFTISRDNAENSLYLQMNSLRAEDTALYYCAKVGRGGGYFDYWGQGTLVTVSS

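In library AAYL51, one, two or three CDR residues were substituted; doubles and triples were drawn at random. Affinity was read by AlphaSeq, a pooled yeast mating assay with surface-displayed partners. After mating in shaken culture at 30 °C for 16 h, diploids were selected and their barcode pairs sequenced. Scores were corrected for input abundance and mapped to Kd with protein pairs of known affinity run in the same pool. There are three technical replicates.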

Positions count from residue 1 of the parent VH; F29H puts H in place of F.
Values are apparent Kd, the geometric mean of the replicates that gave a signal; lower means stronger binding.
"no signal" means that the variant was in the library but no mating with the target was seen in any replicate; the authors take this as a sign of poor binding, and no number exists.

changes,apparent Kd,seen in
F29H/G50S/Y108V,no signal,0 of 3
M34I/D62W/Y105P,no signal,0 of 3
I58A/K65N/Y108V,12 nM,3 of 3
M34I/H35N/W53N,no signal,0 of 3
G100S/G104L/Y105T,no signal,0 of 3
W53N/G59A/V64M,no signal,0 of 3
F27P/D31T/S63H,no signal,0 of 3
I51V/G59D/K65A,no signal,0 of 3
S52H/N54M/G59W,no signal,0 of 3
F29A/S57W/F106L,no signal,0 of 3
F27M/F29P/I51V,11 µM,2 of 3
A33Q/A61P/V99E,8.0 µM,1 of 3
A33D/S63H/D107T,no signal,0 of 3
G50K/N54G,no signal,0 of 3
G56E/G102D/D107A,76 nM,3 of 3
W53V/G59A/K65W,470 µM,2 of 3
N54A/G103V/G104K,7.1 µM,3 of 3
S55Q/I58C/G104W,no signal,0 of 3
N54G/G56C/D62S,2.2 µM,3 of 3
Y32P/G59V/V64Y,43 µM,1 of 3
D30Q/N54S/V99E,19 µM,2 of 3
N54W/Y60M/V99A,22 µM,1 of 3
T28R/G50F/G59A,620 µM,1 of 3
G26T/D30C/D62F,8.8 µM,2 of 3
G50Q/K65N/G103Y,no signal,0 of 3
F27H/Y32R/G50T,no signal,0 of 3
G59W/K65Y/G100H,79 µM,3 of 3
S55V/Y60N,no signal,0 of 3
W53G/G59P,no signal,0 of 3
S57Y/S63W,no signal,0 of 3
H35E/G104H,no signal,0 of 3
M34E/W53E,120 µM,3 of 3
W53T/G56Y/G103A,170 µM,3 of 3
I51N/S57C,no signal,0 of 3
N54C/G102M,5.2 µM,1 of 3
I51H/V99L/G103H,no signal,0 of 3
F27V/Y32V/A61P,160 µM,2 of 3
G50I/I51D/S52T,340 µM,1 of 3
D31I/M34P/V99A,no signal,0 of 3
V64R/G103H/D107S,no signal,0 of 3
F27W/G56E/K65C,11 µM,1 of 3
F29K/Y32F/S55K,3.9 µM,1 of 3
N54L/S57E/V99R,no signal,0 of 3
G26S/G59C/Y105H,no signal,0 of 3
M34E/Y60K/Y108D,no signal,0 of 3
M34H/V64T/Y105S,490 µM,1 of 3
Y32P/S52T/S55Y,13 µM,1 of 3
S55F/G56P/V99N,220 µM,3 of 3
H35F/S63H/R101G,no signal,0 of 3
N54K/R101V/Y108M,no signal,0 of 3
G50Q/G56Y/I58D,no signal,0 of 3
M34V/S57R/G103E,9.4 µM,1 of 3

Excerpt, the final 7 entries:

changes,apparent Kd,seen in
M34H/V64T/Y105S,490 µM,1 of 3
Y32P/S52T/S55Y,13 µM,1 of 3
S55F/G56P/V99N,220 µM,3 of 3
H35F/S63H/R101G,no signal,0 of 3
N54K/R101V/Y108M,no signal,0 of 3
G50Q/G56Y/I58D,no signal,0 of 3
M34V/S57R/G103E,9.4 µM,1 of 3

As a blank, each scFv also met three strains without target: over library AAYL51, 21% of these pairings were detected, typically at 34 µM and seldom below 1.8 µM.
For reference, the parent read 72 nM as the reference entry and 7.5 nM as a member of this library.